Experiment [1] concerns the target Biotinylated PD-1-huIgG1 Fc (Kactus Biosystems) (UniProt Q15116). Put plainly: neutralisation ELISA: PD-L1-huIgG1 Fc coated, antibody titrated against biotinylated PD-1-huIgG1 Fc. On the technique in general: An ELISA detects its analyte on a solid surface through an enzyme-linked reagent.
In experiment [2] the target is PD-1 Protein, Human, Recombinant (His Tag) (Beijing Yiqiao Shenzhou / Sino Biological) (human) (UniProt Q15116). As to the kind of experiment: binding ELISA: human PD-1 His tag protein coated at 0.5 ug/ml, antibody in two-fold dilutions from 10 ug/ml.

By UniProt entry, the sequences of proteins in these tests, tags left out. Residues count along the entry.
UniProt Q15116, 25-167 limits assumed: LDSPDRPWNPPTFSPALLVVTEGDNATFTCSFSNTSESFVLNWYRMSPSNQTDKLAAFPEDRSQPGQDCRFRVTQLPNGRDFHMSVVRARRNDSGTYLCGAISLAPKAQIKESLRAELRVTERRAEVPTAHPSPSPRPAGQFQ

For orientation: IC50 means the midpoint of a concentration-inhibition curve. Read a high IC50 as lower potency. Usually EC50 stands for the concentration at which the effect is half-maximal.

Regarding pembrolizumab huIgG1 antibody, the IC50 in experiment [1] worked out at 6.66 µg/mL. Further, in experiment [2], the half-maximal effective concentration (EC50) came to 0.0111 µg/mL.

These data come from patent WO2022068891A1 (dated 2022).
